Measured values reported in patent US6875748B2, “Compositions and methods for in vivo delivery of polynucleotide-based therapeutics” (Vical Incorporated, priority 2000, dated 2005).

System: mouse quadriceps muscle
Test: Luciferase expression in mouse quadriceps muscle after injection of VR1255 in 150 mM sodium and potassium salt solutions
Format: in vivo
Conditions: VR1255, day 7

SMILES: O=C[C@H](O)[C@@H](O)[C@H](O)[C@H](O)COP(=O)([O-])[O-].[Na+].[Na+] [glucose-6-phosphate, disodium glucose-6-phosphate]
- luciferase expression compared with saline or potassium chloride: increased luciferase expression

SMILES: O=P([O-])([O-])OCC(O)CO.[Na+].[Na+] (racemic) [disodium glycerophosphate, disodium DL-α-glycero-phosphate]
- luciferase expression compared with saline or potassium chloride: showing a significant increase
